uPA generation – cell surface uPA generation inhibition. cell surface uPA generation assay, qHTS. Potency, µM (top dose mostly 38.3 µM), for inactives: at the highest dose activity change, negative = inhibition, actives largely listed as inhibitors. actives 0.31% (n = 330,000); active = well fitted inhibition curve with a large enough effect; inconclusive = small, poorly fitted or top-dose-only effect; inactive = no such curve, though single readings can be large or run the other way; tested in mouse RAW 264.7 cells; also: potency is read from the fitted curve at half-maximal effect; % is scaled to controls: 0 for no effect and ±100 for the full control effect; nearly all actives have a fitted effect of over 55% in size
miR-21 FLuc – raises the signal of a miR-21 reporter; HeLa miR-21 FLuc reporter, luciferase, 48 h; Potency, µM (top dose mostly 38.3 µM), for inactives: at the highest dose reporter change, positive = more light; AID 2288; 340,000 tested, under 10 active; active = well fitted rising curve with a large enough effect; inconclusive = small, poorly fitted or top-dose-only effect; inactive = no such curve, though single readings can be large or run the other way;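 note: % of control where 0% means no effect; miR-21 action dims this reporter so a rising signal means less miR-21 action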
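Luminescence from a firefly luciferase reporter carrying a miR-21 binding site downstream, stably expressed under a CMV promoter in HeLa cells that make miR-21 endogenously, reports miRNA modulation after 48 h compound exposure up to approximately 40uM final.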
DT40 TDP1 no CPT – qHTS for Inhibitors of human tyrosyl-DNA phosphodiesterase 1 (TDP1): qHTS in cells in absence of CPT; DT40 Tdp1-/- hTDP1 cells, no CPT, ATP luminescence, 48 h; Potency, µM (series often up to 46.2 µM), for the others: at the top dose activity change, negative = growth inhibition, hits mostly inhibitors; actives 15% (n = 420,000); AID 686978, 2013; also: potency is read from the fitted curve at half-maximal effect; % is scaled to controls: 0 for no effect and ±100 for the full control effect; nearly all actives have a fitted effect of over 55% in size
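A cellular qHTS used chicken DT40 cells lacking endogenous Tdp1 but carrying stably transfected human TDP1. Compounds were applied without camptothecin, and cell growth kinetics were judged by ATP-dependent luminescence after ≥48 hr.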
TDP1 cell CPT – DT40-hTDP1 cell growth loss with CPT; chicken DT40 Tdp1-/-;hTDP1 cells + 20 nM CPT, ATP luminescence, 48 h; Potency, µM (series often up to 46.2 µM), without a hit: at the top dose activity change, negative = growth inhibition, most hits filed as inhibitors; actives 12% (n = 420,000); also: potency is read from the fitted curve at half-maximal effect; % is scaled to controls: 0 for no effect and ±100 for the full control effect; nearly all actives have a fitted effect of over 55% in size
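Cell growth measured by CellTiter-Glo luminescence after a minimum 48 h, 37 C compound exposure with 20 nM CPT in Tdp1-knockout DT40 cells stably expressing hTDP1, seeded 400/well; qHTS titration format.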
TDP1 inh – blocks human tyrosyl-DNA phosphodiesterase 1; Q9NUW8; recombinant TDP1, AlphaScreen DNA substrate cleavage; Potency, µM (highest dose often 130 µM), for the others: at the top dose activity change, negative = inhibition, usual class: inhibitors; actives 0.28% (n = 350,000); also: potency is read from the fitted curve at half-maximal effect; % is scaled to controls: 0 for no effect and ±100 for the full control effect; nearly all actives have a fitted effect of over 40% in size
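Steps: enzyme plus compound, 15 min RT; add biotin/phosphotyrosine-FITC oligonucleotide (15 nM final), react 5 min; add donor/acceptor beads (10 ug/ml final), 10 min; read AlphaScreen. Tdp1 at 1 nM final.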
The depositor's hits bear a star; u = inconclusive; x = not tested or not shown; ! = not active in a repeat; [ ] = dose if it differs, or a comment. Only some compounds are listed: those with a hit (about 16% of all), similar ones and a draw of the others. Unless noted, calls follow the shape of the dose curve; as a rule, active = well fitted curve in the direction sought with a large enough effect; inconclusive = small, poorly fitted or top-dose-only effect, or another doubt; inactive = no such curve, though single readings can be large; an effect the other way counts as inactive or inconclusive.

Under each structure: uPA generation, miR-21 FLuc, DT40 TDP1 no CPT, TDP1 cell CPT, TDP1 inh
COC(=O)c1ccc(S(=O)(=O)NC(C)(C)C)n1C
  10%, -7%, -5%, 6%, 7%
Cc1noc(C)c1-c1ccc2ncnc(NC(C)c3ccccc3)c2c1 (centres undefined)
  x, x, x, x, 8%
CCC(c1nnnn1C(C)(C)CC)N1CCN(c2ccccc2F)CC1 (centres undefined)
  5%, -2%, u, -22%, 1%
Nc1c(-c2ccccc2)c(CN2CCOCC2)nn1-c1ccc(C(=O)O)cc1
  3%, -5%, -8%, -1%, 3%
COc1ccc(-c2cc(C(F)F)n3ncc(C(=O)Nc4ccc(C(=O)N5CCOCC5)cc4)c3n2)cc1
  -1%, -15%, 3.3µM*, 10µM*, 1%
O=C(Nc1ccc(C(=O)N2CCOCC2)cc1)c1cnn2c(C(F)F)cc(-c3ccccc3)nc12
  -7%, -8%, 5.8µM*, u, 6%
COc1ccc(NS(=O)(=O)c2ccc(NC(=O)c3cnn4c(C(F)F)cc(-c5ccc(C)cc5)nc34)cc2)cc1
  x, -2%, x, x, 1%
COc1ccc(NC(=S)NCc2ccc(S(N)(=O)=O)cc2)c(OC)c1
  -3%, -8%, -17%, -21%, -1%
COc1cccc(C2=C(C(C)=O)Sc3nncn3N2C(C)=O)c1
  x, 19%, 23µM*, u, 5%
CC(=O)C1=C(c2ccc(Cl)c(Cl)c2)N(C(C)=O)n2c(C)nnc2S1
  x, u, 4.1µM*, 2.9µM*, 0%
CC(=O)C1=C(c2ccc(Cl)c(Cl)c2)N(C(C)=O)n2cnnc2S1
  x, -6%, 2.9µM*, 2.6µM*, -3%
CC(=O)C1=C(c2ccc(Cl)c(Cl)c2)N(C(C)=O)n2c(nnc2-c2ccccc2)S1
  x, 0%, u, u, 5%
O=C(Cn1cnc2c(nc3n2CCCCC3)c1=O)Nc1cccc(C(F)(F)F)c1
  17%, -5%, 0%, -6%, 1%
CCN(C[C@H]1N[C@@](Cc2ccccc2)(C(=O)OC)[C@H]2C(=O)N(C)C(=O)[C@@H]12)C(=O)c1ccccc1
  -1%, x, -1%, 0%, 0%
CCCCCOc1ccc(/C(C)=N/NC2=NCCN2)cc1
  u, -15%, u, u, 5%

Shown bar-delimited: part of the list above.
molecule | uPA generation | miR-21 FLuc | DT40 TDP1 no CPT | TDP1 cell CPT | TDP1 inh
CC(=O)C1=C(c2ccc(Cl)c(Cl)c2)N(C(C)=O)n2c(nnc2-c2ccccc2)S1 | x | 0% | u | u | 5%
COC(=O)c1ccc(S(=O)(=O)NC(C)(C)C)n1C | 10% | -7% | -5% | 6% | 7%
O=C(Cn1cnc2c(nc3n2CCCCC3)c1=O)Nc1cccc(C(F)(F)F)c1 | 17% | -5% | 0% | -6% | 1%
Cc1noc(C)c1-c1ccc2ncnc(NC(C)c3ccccc3)c2c1 (centres undefined) | x | x | x | x | 8%
COc1ccc(NC(=S)NCc2ccc(S(N)(=O)=O)cc2)c(OC)c1 | -3% | -8% | -17% | -21% | -1%

New compounds follow:
Under each structure: uPA generation, miR-21 FLuc, DT40 TDP1 no CPT, TDP1 cell CPT, TDP1 inh
CCOc1ccc(Br)cc1/C(C)=N\NC1=NCCN1
  -21%, u, 4.6µM*, 5.8µM*, -7%
C/C(N)=C(/C#N)C(=O)CSc1nnc(Nc2ccccc2)s1
  5%, -31%, -22%, 7%, 0%
CCN(C(=O)COC(=O)c1c(C)nn(-c2ccccc2)c1C)C1CCS(=O)(=O)C1 (centres undefined)
  3%, -34%, -3%, 14%, 0%
CCN(C(=O)COC(=O)c1c2c(nc3ccccc13)/C(=C/c1ccccc1)CC(C)C2)C1CCS(=O)(=O)C1 (centres undefined)
  -9%, 0%, 13µM*, u, 5%
O=S(=O)(NC1CCCC1)c1ccc(Br)s1
  6%, -10%, -3%, 7%, 2%
Cc1n[nH]c(=O)c2c(NC(=O)CSc3nnnn3-c3ccccc3)oc(C)c12
  -5%, x, -3%, -3%, 0%
O=C(CNC(c1ccccc1)c1ccccc1)Nc1cc([N+](=O)[O-])ccc1Cl
  7%, 10%, 16µM*, 21µM*, 2%
O=C(Nc1cccc(Cl)c1)c1cc(N=Nc2ccc([N+](=O)[O-])cc2Cl)ccc1O
  14%, -14%, 2.6µM*, 5.2µM*, 9%
CC(C)CC(=O)Nc1cc([N+](=O)[O-])ccc1Cl
  x, -6%, -5%, -19%, 1%
O=C(Nc1ccncc1)c1cc([N+](=O)[O-])ccc1Cl
  x, x, x, x, 4%
O=C(Nc1ccccc1)c1cc([N+](=O)[O-])ccc1Cl
  -9%, 8%, 28µM*!, 30µM*!, -4%[56.1 µM]
Cc1ccc(O)c(NC(=O)c2cc([N+](=O)[O-])ccc2Cl)c1
  x, u, 21µM*, u, -1%
Cc1nc2ccc(NC(=O)c3cc(S(=O)(=O)N4CCOCC4)ccc3C)cc2s1
  -6%, 15%, 23µM*, u, 2%
Cc1ccc(C(=O)Nc2ccc(Br)cc2)cc1S(=O)(=O)N1CCOCC1
  x, 11%, x, x, -4%
O=C(Nc1ccc(-c2cn3ccsc3n2)cc1)c1ccc(F)c(S(=O)(=O)N2CCOCC2)c1
  -12%, 26%, 23µM*, u, 3%

Remaining list, next part:
Screens by letter – A = uPA generation; B = miR-21 FLuc; C = DT40 TDP1 no CPT; D = TDP1 cell CPT; E = TDP1 inh
Cc1nc2ccc(NC(=O)c3ccc(C)c(S(=O)(=O)N4CCOCC4)c3)cc2s1
  A: -4%; B: x; C: u; D: 18µM*; E: 1%

CC(=O)c1ccc(NC(=O)c2cc(S(=O)(=O)N3CCOCC3)ccc2C)cc1
  A: -3%; B: 7%; C: u; D: u; E: 1%

Cc1csc(OCc2ccc(C#N)cc2)n1
  A: x; B: -2%; C: 3%; D: -20%; E: -1%

CCC(=O)N1CCc2cc(Br)cc(S(=O)(=O)N3CCN(c4ccc(C)cc4)C(C)C3)c21 (centres undefined)
  A: x; B: -1%; C: -6%; D: 9%; E: 6%

Cc1ccc(N2CCN(S(=O)(=O)c3cc(Br)cc4c3N(C(=O)C3CC3)CC4)CC2C)cc1 (centres undefined)
  A: x; B: 4%; C: 16µM*; D: 13µM*; E: 0%

COc1ccc(NS(=O)(=O)c2cc(Br)cc3c2N(C(=O)C2CC2)CC3)cc1OC
  A: x; B: 0%; C: 2.1µM*; D: 2.3µM*; E: 4%

COc1ccccc1CNS(=O)(=O)c1cc(Br)cc2c1N(C(=O)C1CC1)CC2
  A: x; B: 4%; C: u; D: u; E: 12%

CCCCN(C)S(=O)(=O)c1cc(Br)cc2c1N(C(=O)C1CC1)CC2
  A: -3%; B: 22%; C: 3.7µM*; D: 8.2µM*; E: 5%

O=C(CCS(=O)(=O)c1cc(Br)cc2c1N(C(=O)C1CC1)CC2)N1CCN(c2cccc(C(F)(F)F)c2)CC1
  A: x; B: 23%; C: 18µM*; D: 16µM*; E: 2%

O=C(O)CCS(=O)(=O)c1cc(Br)cc2c1N(C(=O)C1CC1)CC2
  A: 5%; B: -1%; C: 8%; D: 20%; E: -6%

COCCc1nc2ccc(C(=O)N(C)Cc3cccc(-n4nc(C)cc4C)c3)cc2o1
  A: -10%; B: 0%; C: -2%; D: 4%; E: 2%

Cc1cc(CN(C)Cc2c(C(=O)N3CCCCCCC3)nc3ccc(Cl)cn23)n[nH]1
  A: -4%; B: 0%; C: -22%; D: 1%; E: x

CC(C)c1ccc(NS(=O)(=O)c2cc(Br)cc3c2N(C(=O)C2CC2)CC3)cc1
  A: x; B: 18%; C: 4.6µM*; D: 8.2µM*; E: 3%

O=C(NNC(=O)C12CC3CC(CC(O)(C3)C1)C2)c1ccccc1O
  A: -14%; B: -4%; C: u; D: u; E: 1%

COc1ccc2c(c1)C(=O)N(c1ccccc1)C(=O)C2
  A: -1%; B: 2%; C: -9%; D: -27%; E: 8%

COc1ccc(N2C(=O)Cc3ccccc3C2=O)cc1
  A: 10%; B: -5%; C: 13µM*; D: u; E: x
